{
  "source": "patent US12582657B2",
  "about": "“Combination therapy including a KRAS G12C inhibitor and one or more additional pharmaceutically active agents for the treatment of cancers” (Amgen Inc., priority 2018, dated 2026)",
  "system": "SW837 (colon)",
  "assay": "In vitro two-way combination matrix, growth inhibition, Loewe synergy score",
  "data": [
    {"substance": "cetuximab: EGFR antibody, Erbitux", "values": [
      {"measurement": "single agent activity", "value": "lack of cetuximab activity"}
    ]}
  ]
}
